Test results from patent US8440641B2, “Phthalocyanine salt formulations” (Case Western Reserve University, priority 2009, dated 2013).

Assay: Photofading of phthalocyanines on irradiation with tungsten lamp light
Assay type: physicochemical
Protocol: Linolenate Ester of SiPc(OH)2, SiPc(OC(O)(CH2)6(CH2CH═CH)3 CH2CH3]2. A solution of the linolenate ester of SiPc(OH)2 in toluene (˜0.01 mM) in a capped quartz cuvette was irradiated at room temperature with light from a tungsten lamp (300 W) in a projector (Kodak […] III E, Kodak, Japan) with a lamp-to-cuvette separation of 30 cm. The UV-vis absorption of the solution at 684 nm was taken periodically and the percent ester remaining was calculated.
The compounds below Table 7 show phthalocyanines with (a) polyunsaturated ester ligands and (b) with polyunsaturated anions

Question: For “SiPc(OC(O)(CH2)6(CH2CH═CH)3CH2CH3]2 [linolenic ester]”, which “% left” value is on record?
Answer: 88 68 59%
